Laboratory results: PubChem BioAssay AID624467 (The Scripps Research Institute Molecular Screening Center, 2012)
This is a selection; strong and weak results do not stand in their true shares. Some salts or complexes appear as unconnected parts, following the source record. Calls of active or inactive are those of the source.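 Rule for the calls: active = activation above the mean activation of all test compounds in the run plus 3 SD (cut at about 38% in these data); inactive = the rest.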

Chains of the proteins cited; added tags and fusions are not shown.
UniProt Q96RJ0, whole entry: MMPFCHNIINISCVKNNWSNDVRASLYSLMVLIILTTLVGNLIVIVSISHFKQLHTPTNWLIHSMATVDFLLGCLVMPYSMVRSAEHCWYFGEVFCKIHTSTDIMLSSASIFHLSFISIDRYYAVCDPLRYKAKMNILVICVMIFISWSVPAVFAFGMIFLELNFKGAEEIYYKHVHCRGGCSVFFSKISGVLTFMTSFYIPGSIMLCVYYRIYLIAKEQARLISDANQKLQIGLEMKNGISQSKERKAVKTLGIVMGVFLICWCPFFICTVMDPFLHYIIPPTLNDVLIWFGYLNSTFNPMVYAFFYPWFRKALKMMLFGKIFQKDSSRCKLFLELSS

Target: Trace amine-associated receptor 1 (Homo sapiens) (UniProt Q96RJ0)
Test: activators of TAAR1 calcium mobilization – Fluo-8 calcium fluorescence, CHO RD-HGA16 cells, primary screen (AID 624467)
Details: CHO RD-HGA16 TAAR1, Fluo-8 calcium fluorescence; at 3 µM; hits give high values; vehicle wells 0%, saturating PEA agonist 100%

Structure (SMILES) | activation
CCc1ccc(OP(C)(=O)Nc2cccnc2)cc1 (centres undefined) | inactive: 2.09%
CP(=O)(Oc1ccccc1)N1CCOC1=O (centres undefined) | inactive: 2.4%
O=C(OCCCN1CCCC1)C(O)(c1ccccc1)C1CCCCC1 (centres undefined) | inactive: 8.49%
COc1ccccc1OP(C)(=O)Nc1c(C)n(C)n(-c2ccccc2)c1=O (centres undefined) | inactive: 5.58%
COc1ccc(OP(C)(=O)Nc2ccc(Br)cc2)cc1 (centres undefined) | inactive: 2.85%
CCN(CC)CC(O)COC(=O)C(O)(c1ccccc1)C1CCCCC1 (centres undefined) | inactive: 1.29%
CN(C)C(=O)c1c([N+](=O)[O-])cc([N+](=O)[O-])cc1[N+](=O)[O-] | inactive: 3%
CP(=O)(Nc1ccc(Cl)cc1)Oc1ccc(F)cc1 (centres undefined) | inactive: 6.76%
CC(C)(C)c1ccc(OP(C)(=O)O)cc1 | inactive: 3.39%
COc1ccccc1OP(C)(=O)Nc1ccccc1Br (centres undefined) | inactive: -1.44%
CP(=O)(OC12CC3CC(CC(C3)C1)C2)OC12CC3CC(CC(C3)C1)C2 | active: 64.2%
CCOC(=O)c1ccc(NP(C)(=O)Oc2ccc(Cl)cc2)cc1 (centres undefined) | inactive: 1.31%
Nc1ccc2c(ccc3cccnc32)n1.O=[N+]([O-])c1cc([N+](=O)[O-])c(O)c([N+](=O)[O-])c1 | inactive: 3.47%
COc1ccc(OP(C)(=O)Nc2ccccc2Br)cc1 (centres undefined) | inactive: 2.7%
COc1ccccc1OP(C)(=O)Nc1ccc(C)c(C)c1 (centres undefined) | inactive: 2.79%
Cc1cc(C)cc(OP(C)(=O)Nc2cccc(C(F)(F)F)c2)c1 (centres undefined) | inactive: 3.77%
O=C1C(O)=C([N+](=O)[O-])C(=O)C(O)=C1[N+](=O)[O-] | inactive: 1%
CP(=O)(OCCOc1ccccc1)OCCOc1ccccc1 | inactive: 0.01%
CCCCCCCCCCCCCCCC1C[N+](C)(C)CCOP(C)(=O)O1 (centres undefined) | inactive: 33%
CP(=O)(Nc1ccc(Cl)cc1Cl)Oc1ccccc1 (centres undefined) | inactive: 2.85%
CN(C)CCOC(=O)C(O)(c1ccccc1)C1CCCC1 (centres undefined) | inactive: 11.7%
COc1ccc(OP(C)(=O)Nc2ccccn2)cc1 (centres undefined) | inactive: 15.4%
COc1ccccc1OP(C)(=O)Nc1ccc(Br)cc1 (centres undefined) | inactive: 4.43%
CCc1ccc(OP(C)(=O)O)cc1 | inactive: 7.83%
COc1ccccc1OP(C)(=O)Nc1ccc(C)cc1C (centres undefined) | inactive: -0.1%

Structure (SMILES) | activation
CP(=O)(Nc1ccccn1)Oc1ccccc1 (centres undefined) | inactive: 16.5%
O=[N+]([O-])c1cc([N+](=O)[O-])c(Nc2ccccn2)c([N+](=O)[O-])c1 | inactive: 9.91%
Cc1c(NP(C)(=O)Oc2ccc(C(C)C)cc2)c(=O)n(-c2ccccc2)n1C (centres undefined) | inactive: 10.8%
CC(C)c1ccc(OP(C)(=O)Nc2ccc(SC(F)(F)F)cc2)cc1 (centres undefined) | inactive: 5.56%
CP(=O)(Nc1ccccc1F)Oc1ccccc1 (centres undefined) | inactive: 12.8%
O=[N+]([O-])c1cc([N+](=O)[O-])c(Nc2ccc(Cl)cc2)c([N+](=O)[O-])c1 | inactive: 4.47%
COc1ccc2c(c1O)-c1c(O)c(OC)cc3c1[C@H](C2)[N+](C)(C)CC3.O=[N+]([O-])c1cc([N+](=O)[O-])c([O-])c([N+](=O)[O-])c1[O-] | inactive: 5.42%
O=C(OCCN1CCN(CCOCc2ccccc2)CC1)C(O)(c1ccccc1)c1ccccc1 | inactive: 2.88%
O=C(OC1CN2CCC1CC2)c1ccc([N+](=O)[O-])cc1 (centres undefined) | inactive: 8.65%
COc1ccc(OP(C)(=O)Nc2ccc(SC(F)(F)F)cc2)cc1 (centres undefined) | inactive: 11.7%
CCOC(=O)c1ccc(NP(C)(=O)Oc2ccc(F)cc2)cc1 (centres undefined) | inactive: 1.22%
CCN(CC)CCCNc1ccccc1[N+](=O)[O-].O=[N+]([O-])c1cc([N+](=O)[O-])c(O)c([N+](=O)[O-])c1 | inactive: -0.42%
CCCCCOc1ccc(NP(C)(=O)Oc2ccc(Cl)cc2Cl)cc1 (centres undefined) | inactive: 3.29%
O=[N+]([O-])c1cc([N+](=O)[O-])c(OC2CCCCC2O)c([N+](=O)[O-])c1 (centres undefined) | inactive: 4.14%
CP(=O)(Nc1ccccc1)Oc1ccc(F)cc1 (centres undefined) | inactive: 4.06%
CCN(CC)CCCOC(=O)C(O)(c1ccccc1)C1CCCCC1 (centres undefined) | inactive: 4.23%
Cc1c([N+](=O)[O-])cc([N+](=O)[O-])c(Br)c1[N+](=O)[O-] | inactive: 2.14%
COc1ccc(NP(C)(=O)Oc2ccccc2OC)cc1 (centres undefined) | inactive: 3.76%
CN(C)CCOC(=O)C(O)(c1ccccc1)C1CCCCC1 (centres undefined) | inactive: 10.2%
COc1ccc(OP(C)(=O)Nc2cccc(Br)c2)cc1 (centres undefined) | inactive: 0.75%
Cc1c(C(c2ccc3c(c2)OCO3)c2c(C)n(C)n(-c3ccccc3)c2=O)c(=O)n(-c2ccccc2)n1C.O=[N+]([O-])c1cc([N+](=O)[O-])c(O)c([N+](=O)[O-])c1 | inactive: -0.13%
Cc1cc(-c2cccc3ccccc23)c(C)cn1.O=[N+]([O-])c1cc([N+](=O)[O-])c(O)c([N+](=O)[O-])c1 | inactive: 14.4%
O=[N+]([O-])c1cc([N+](=O)[O-])c(NCC2CCS(=O)(=O)C2)c([N+](=O)[O-])c1 (centres undefined) | inactive: 11.1%
O=[N+]([O-])c1ccc(OP2(=O)COCCO2)cc1 (centres undefined) | inactive: -0.33%
CCOP(=O)(CC)OCC | inactive: 0.4%

Structure (SMILES) | activation
CCOP(C)(=S)SCC(=O)NC(C)(CC)C(=O)O (centres undefined) | inactive: 0.06%
CP(=O)(Nc1ccc(SC(F)(F)F)cc1)Oc1ccc(F)cc1 (centres undefined) | inactive: 7.03%
O=[N+]([O-])c1cc([N+](=O)[O-])c(C(F)(F)F)c([N+](=O)[O-])c1O | inactive: 9.79%
Cc1ccccc1NP(C)(=O)Nc1ccccc1C | inactive: 3.5%
CP(=O)(Nc1ccc2c(c1)OCCO2)Oc1ccccc1 (centres undefined) | inactive: 7.78%
CN(Cc1cccnc1)C(=O)COc1ccc(Cl)c(Cl)c1.O=[N+]([O-])c1cc([N+](=O)[O-])c(O)c([N+](=O)[O-])c1 | inactive: 6.03%
O=[N+]([O-])c1cc([N+](=O)[O-])c(-n2nnc3ccccc32)c([N+](=O)[O-])c1 | inactive: 16.6%
Cc1nc2ccc3ccccc3c2s1.O=[N+]([O-])c1cc([N+](=O)[O-])c(O)c([N+](=O)[O-])c1 | inactive: 2.66%
O=[N+]([O-])c1cc([N+](=O)[O-])c(-c2cnn(-c3ccccc3)c2)c([N+](=O)[O-])c1 | inactive: -0.43%
CCOC(=O)C(CC)C1=NC(C)(C)Cc2ccccc21.O=[N+]([O-])c1cc([N+](=O)[O-])c(O)c([N+](=O)[O-])c1 (centres undefined) | inactive: -3.36%
O=[N+]([O-])c1cc([N+](=O)[O-])c(Nc2nnnn2CCO)c([N+](=O)[O-])c1 | inactive: 0.24%
CP(=O)(Nc1ccc(SC(F)(F)F)cc1)Oc1ccccc1 (centres undefined) | inactive: 5.05%
CCCOc1ccc(NP(C)(=O)Oc2ccc(Cl)cc2)cc1 (centres undefined) | inactive: 6.18%
COc1ccc(-c2ccccn2)cc1.O=[N+]([O-])c1cc([N+](=O)[O-])c(O)c([N+](=O)[O-])c1 | inactive: 1.04%
COc1ccccc1OP(C)(=O)Nc1c(C)cccc1C (centres undefined) | inactive: 0.94%
CN1CCCCC1COC(=O)C1(O)c2ccccc2CCc2ccccc21 (centres undefined) | inactive: 3.25%
O=C(O)c1cccc(Nc2c([N+](=O)[O-])cc([N+](=O)[O-])cc2[N+](=O)[O-])c1 | inactive: -0.03%
CC1=NCCc2c1[nH]c1ccccc21.O=[N+]([O-])c1cc([N+](=O)[O-])c(O)c([N+](=O)[O-])c1 | inactive: 2.35%
Cc1cc(C)cc(OP(C)(=O)Nc2ccc(C)cc2C)c1 (centres undefined) | inactive: 2.21%
CCOC(=O)c1ccc(NP(C)(=O)Oc2cc(C)cc(C)c2)cc1 (centres undefined) | inactive: 7.49%
COc1ccccc1OP(C)(=O)Nc1cccc(Br)c1 (centres undefined) | inactive: -2.01%
CP(=O)(Nc1cccc(Br)c1)Oc1ccccc1 (centres undefined) | inactive: 7.88%
Cc1cc(C)cc(OP(C)(=O)Nc2ccccn2)c1 (centres undefined) | inactive: 7.31%
Cc1ccc(C)c(NP(C)(=O)Oc2ccccc2)c1 (centres undefined) | inactive: 3.36%
CCN(CC)CCCOC(=O)C(O)(c1ccccc1)c1ccccc1 | inactive: 2.45%

Structure (SMILES) | activation
COc1ccccc1-c1ccccn1.O=[N+]([O-])c1cc([N+](=O)[O-])c(O)c([N+](=O)[O-])c1 | inactive: 0.04%
Cc1cccc(C)c1OP(C)(N)=O (centres undefined) | inactive: 0.36%
CC(C)(C)c1ccc(OP(C)(=O)Nc2ccc(SC(F)(F)F)cc2)cc1 (centres undefined) | inactive: -1.06%
O=[N+]([O-])c1ccc2c(c1)C=Nc1ccccc1O2 | inactive: 1.72%
O=[N+]([O-])c1cc([N+](=O)[O-])c(Nc2cccnc2)c([N+](=O)[O-])c1 | inactive: 15.3%
COc1ccc(OP(C)(=O)Nc2cccc(F)c2)cc1 (centres undefined) | inactive: 10.8%
COc1ccccc1OP(C)(=O)Nc1cc(Cl)ccc1C (centres undefined) | inactive: 3.42%
Cc1cc(C)cc(OP(C)(N)=O)c1 (centres undefined) | inactive: 1.44%
CCOC(=O)c1ccc(NP(C)(=O)Oc2ccccc2)cc1 (centres undefined) | inactive: 2.75%
Cc1ccc(NP(C)(=O)Oc2ccccc2)c(C)c1 (centres undefined) | inactive: 0.38%
COc1ccccc1OP(C)(=O)Nc1ccc(C)cc1 (centres undefined) | inactive: 0.91%
COc1ccccc1OP(C)(=O)Nc1ccccc1 (centres undefined) | inactive: 2.88%
CP(=O)(Nc1ccccc1Br)Oc1ccccc1 (centres undefined) | inactive: 0.52%
CP(=S)(Nn1cnnc1)Oc1ccccc1 (centres undefined) | inactive: 1.6%
Cc1cc(C)cc(OP(C)(=O)Nc2ccc(SC(F)(F)F)cc2)c1 (centres undefined) | inactive: 5.88%
CCc1ccc(OP(C)(=O)N2CCN(c3ccc([N+](=O)[O-])cc3)CC2)cc1 (centres undefined) | inactive: 10.7%
CP(=O)(NC(=O)Nc1ccccc1)Oc1ccccc1 (centres undefined) | inactive: 5.83%
CP(=O)(Oc1ccccc1)OC(c1ccccc1)C(F)(F)F (centres undefined) | inactive: -2.44%
Cc1cccc(C)c1OP(C)(=O)Nc1ccc(SC(F)(F)F)cc1 (centres undefined) | inactive: 7.88%
CP(=O)(Nc1ccc(SC(F)(F)F)cc1)Oc1ccc(Cl)cc1 (centres undefined) | inactive: 1.95%
CP(=O)(Nc1ccccn1)Oc1ccc(Cl)cc1 (centres undefined) | inactive: -0.52%
CCOP(C)(=S)SCC(=O)NC(C)C(=O)O (centres undefined) | inactive: 1.21%
CCOC(=O)c1ccc(NP(C)(=O)Oc2ccc(OC)cc2)cc1 (centres undefined) | inactive: 2.08%
O=[N+]([O-])c1cc([N+](=O)[O-])c(O)c([N+](=O)[O-])c1.c1ccc(Oc2ccncc2)cc1 | inactive: 7.7%
